# Results from patent US20030186999A1, “Purine derivatives having, in particular, antiproliferative properties, and their biological uses” (CENTRE NATIONAL DE LA RECHERCHE SCIENTIFIGUE (C.N.R.S.), priority 1995, published 2003).
# Protein sequences, listed by entry. Tags and fused reporters are not part of them. Lines headed by an entry give the natural chain unless they say otherwise; changes in a name come on top.
# UniProt P11802: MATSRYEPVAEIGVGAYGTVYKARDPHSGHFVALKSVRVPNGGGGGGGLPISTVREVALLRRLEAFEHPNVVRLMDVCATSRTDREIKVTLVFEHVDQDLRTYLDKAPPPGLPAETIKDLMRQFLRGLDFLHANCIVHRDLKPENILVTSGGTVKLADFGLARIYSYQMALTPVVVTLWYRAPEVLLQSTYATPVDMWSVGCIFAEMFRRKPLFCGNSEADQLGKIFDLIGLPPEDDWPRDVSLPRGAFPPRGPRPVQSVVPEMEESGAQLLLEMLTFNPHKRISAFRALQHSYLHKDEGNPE
# Molecular target: T1, cdc4/cyclin D1 (Homo sapiens, UniProt P11802)
# T1 construct: GST (N); made in house; host or cells: insect cells
# Experiment: cdk4/cyclin D1 kinase, GST-retinoblastoma protein phosphorylation
# Type: biochemical
smiles,measurement,value
"Cn1cnc2c(NCc3ccccc3)nc(NCCO)nc21 [olomoucine, 2-(2-hydroxyethylamino)-6-benzylamino-9-methylpurine]",IC50,> 1000 µM
